Measurements taken from patent US12161698B2, “Synthetic platelets” (CASE WESTERN RESERVE UNIVERSITY, priority 2011, dated 2024).

Tested on: systemic hemostasis in mice (tail bleeding)
Assay: Tail bleeding time after free SK versus PMIN-encapsulated SK
Conditions: 400 IU/mouse, 30 min post-administration, vs normal mice

With streptokinase [free SK] the tail bleeding time was “significant prolongation of tail bleeding time”.
